Measurements published in ChEMBL document CHEMBL3632521, “A study of ad-proline peptidomimetic inhibitor of melanoma and endothelial cell invasion through activity towards MMP-2 and MMP-9” (Medchemcomm, 2015).

Sequences of proteins named here, by UniProt entry; tags and fusion partners are left off. A change or cut given only in a name is not applied to a line headed by its entry.
UniProt P08253: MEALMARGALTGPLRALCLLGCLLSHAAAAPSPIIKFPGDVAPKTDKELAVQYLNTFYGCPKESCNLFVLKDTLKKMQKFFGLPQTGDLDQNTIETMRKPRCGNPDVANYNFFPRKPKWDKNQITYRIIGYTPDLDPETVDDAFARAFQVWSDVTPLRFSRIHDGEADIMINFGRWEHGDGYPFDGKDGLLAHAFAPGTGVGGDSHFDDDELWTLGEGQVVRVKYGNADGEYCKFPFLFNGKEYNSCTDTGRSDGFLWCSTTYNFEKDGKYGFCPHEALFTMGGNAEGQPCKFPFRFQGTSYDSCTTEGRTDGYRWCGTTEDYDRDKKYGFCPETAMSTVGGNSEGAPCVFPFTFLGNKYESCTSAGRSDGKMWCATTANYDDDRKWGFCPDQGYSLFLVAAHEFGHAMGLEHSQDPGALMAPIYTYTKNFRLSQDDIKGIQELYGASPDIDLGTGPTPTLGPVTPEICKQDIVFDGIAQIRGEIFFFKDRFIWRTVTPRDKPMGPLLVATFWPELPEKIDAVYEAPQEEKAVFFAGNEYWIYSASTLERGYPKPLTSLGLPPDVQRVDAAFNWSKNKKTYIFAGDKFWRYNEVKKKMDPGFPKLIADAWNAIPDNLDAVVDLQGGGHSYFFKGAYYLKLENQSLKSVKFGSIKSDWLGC

Key:
[1] = biological target: T1, 72 kDa type IV collagenase (Homo sapiens, UniProt P08253); settings: 20 uM
[2] = biological target: T1, 72 kDa type IV collagenase; settings: A375P, 20 uM

COc1ccc(C(=O)N[C@@H]2C[C@H](C(=O)NO)N(S(=O)(=O)c3ccc(Cl)c(Cl)c3)C2)c(OC)c1
inhibition [1]: Active
inhibition [2]: Active

Active and inactive are the calls of the source. The calls are words filed in the database; no cut-off is given here.
